The record followed here is ChEMBL document CHEMBL4007424, “Design and Synthesis of Enantiomerically Pure Decahydroquinoxalines as Potent and Selective κ-Opioid Receptor Agonists with Anti-Inflammatory Activity in Vivo” (J Med Chem, 2017).

The nature of this experiment: Displacement of [3H]DPDPE from delta-type opioid receptor in guinea pig brain membranes after 120 mins by solid scintillation counting. In general terms: Loss of bound radioactivity is the signal in a displacement assay; it reports binding, not function.

Take `O=C(Cc1ccc(Cl)c(Cl)c1)N1CCN[C@H]2CCC[C@H](N3CCCC3)[C@H]21`: the Ki stood at 915 nM.

What is called Ki is the equilibrium dissociation constant of an inhibitor or competing ligand from its target.
